From PMC12655733, “Design, Synthesis and Evaluation of the First 2-Alkynyl(aza)indole ^18F Probe Targeting α-Synuclein Aggregates” (Pharmaceuticals, 2025)

By UniProt entry, the sequences of proteins in these tests, tags left out. Residues count along the entry.
UniProt P05067, 672-713: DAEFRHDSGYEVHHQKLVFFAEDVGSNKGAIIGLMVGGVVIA

Molecular target: T1, Aβ1-42 fibrils (Homo sapiens, UniProt P05067)
T1 construct: Wild-type α-syn and Aβ1-42 were expressed; made in house; host or cells: Escherichia coli BL21(DE3)
Assay: Inhibition of thioflavin T binding to Aβ1-42 fibrils (fluorescence competition), Ki determination
Conditions: read-out: KdThT for Aβ1-42 fibrils
Method: Wild-type α-syn and Aβ1-42 were expressed in the Escherichia coli strain BL21(DE3) (Stratagene, La Jolla, CA, USA) and purified as described. […] For the Aβ1-42 peptide, the concentration was determined by a fluorometric method using the reactive compound fluorescamine (Sigma, San Jose, CA, USA) that reacts with primary amino groups to form a fluorescent product. The human Tau protein (isoform h2N4RTau) was expressed in the pET11d vector in the Escherichia coli strain BL21(DE3) (Stratagene, La Jolla, CA, USA) and purified as described.
For assembly into fibrils, α-syn was incubated in 50 mM Tris-HCl, pH 7.5, 150 mM KCl at 37 °C under continuous shaking for 4 days. Lyophilized Aβ1-42 was dissolved in 1,1,1,3,3,3-hexafluoro-2-propanol (HFIP) at a concentration of 0.2 mg/mL and incubated for 24 h at 37 °C to achieve complete solubilization. HFIP was evaporated under a nitrogen stream to obtain a dry film. To start assembly into fibrils, the dry peptide was resuspended in PBS pH 7.4, 10% (v/v) DMSO and incubated at 37 °C without shaking for 3 days. […] The images were recorded with a Gatan Orius CCD camera (Gatan, Pleasanton, CA, USA). Finally, the percentage of α-syn or Aβ1-42 aggregated into fibrils was assessed by pelleting fibrils at 40,000× g for 20 min and by determining the concentration of soluble protein/peptide remaining in the supernatant. […]

## Cc1ccc2c(c1)sc(-c1ccc(N(C)C)cc1)[n+]2C [ThT, thioflavin T, reference compound]
  Kd: 500 nM
